Experimental data taken from paper PMC4991483 (Oncotarget, 2016).

Assay: HPLC-based glutathione (GSH) reactivity / chemical stability assay, 10 mM GSH with TCEP-HCl
Conditions: 100 μM compound, 10 h timescale

reactivity with GSH: rapidly degraded
SMILES: Cc1ccc(S(=O)(=O)OCC(=O)Nc2ccc(C(=O)O)c(O)c2)cc1 [S3I-201]
